Laboratory results: US20250197382A1, “KIF18A INHIBITOR” (WIGEN BIOMEDICINE TECHNOLOGY (SHANGHAI) CO., LTD., priority 2022, published 2025)

Amino acid sequences for entries named in this document (tags omitted). Residues count along the entry.
UniProt Q8NI77, 1-467 limits assumed: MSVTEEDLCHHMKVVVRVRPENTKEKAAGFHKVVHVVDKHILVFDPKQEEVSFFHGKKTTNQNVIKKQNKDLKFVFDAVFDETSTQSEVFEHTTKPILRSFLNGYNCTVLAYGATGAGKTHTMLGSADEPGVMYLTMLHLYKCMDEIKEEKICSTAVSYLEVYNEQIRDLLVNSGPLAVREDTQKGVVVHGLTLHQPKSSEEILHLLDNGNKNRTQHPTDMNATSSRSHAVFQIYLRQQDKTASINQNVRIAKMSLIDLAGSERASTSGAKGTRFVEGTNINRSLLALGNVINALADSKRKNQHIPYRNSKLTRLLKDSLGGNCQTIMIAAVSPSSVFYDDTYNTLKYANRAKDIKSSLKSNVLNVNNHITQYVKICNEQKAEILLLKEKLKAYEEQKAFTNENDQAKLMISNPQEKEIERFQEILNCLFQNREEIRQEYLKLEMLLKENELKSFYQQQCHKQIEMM
UniProt P02550, whole entry partner: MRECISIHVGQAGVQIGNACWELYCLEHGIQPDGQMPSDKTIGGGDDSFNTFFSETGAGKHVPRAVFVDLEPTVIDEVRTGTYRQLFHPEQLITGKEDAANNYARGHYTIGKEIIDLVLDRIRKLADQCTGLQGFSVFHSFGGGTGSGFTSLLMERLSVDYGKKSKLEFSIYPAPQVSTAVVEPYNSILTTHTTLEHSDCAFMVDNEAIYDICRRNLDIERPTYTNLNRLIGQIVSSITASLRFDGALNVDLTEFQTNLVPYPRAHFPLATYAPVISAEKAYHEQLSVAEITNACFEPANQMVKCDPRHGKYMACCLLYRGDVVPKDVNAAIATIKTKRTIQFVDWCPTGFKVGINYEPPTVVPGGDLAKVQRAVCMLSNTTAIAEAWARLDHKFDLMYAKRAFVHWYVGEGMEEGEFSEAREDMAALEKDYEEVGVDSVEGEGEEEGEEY
UniProt P02554, whole entry partner: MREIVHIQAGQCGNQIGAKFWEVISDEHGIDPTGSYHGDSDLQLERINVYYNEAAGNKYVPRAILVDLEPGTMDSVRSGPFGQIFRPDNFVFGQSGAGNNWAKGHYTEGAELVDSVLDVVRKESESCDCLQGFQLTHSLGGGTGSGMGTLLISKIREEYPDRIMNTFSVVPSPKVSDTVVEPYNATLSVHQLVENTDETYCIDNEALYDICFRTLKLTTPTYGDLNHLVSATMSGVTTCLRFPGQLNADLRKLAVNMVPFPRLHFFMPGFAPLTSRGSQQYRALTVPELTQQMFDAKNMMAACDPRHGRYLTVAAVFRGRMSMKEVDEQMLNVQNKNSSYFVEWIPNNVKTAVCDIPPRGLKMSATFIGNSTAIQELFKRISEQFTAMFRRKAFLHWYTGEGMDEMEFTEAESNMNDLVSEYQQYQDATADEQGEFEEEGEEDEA

Key:
[1] = target: Recombinant human KIF18A (1-467His-tagged) protein (Homo sapiens (Human), UniProt Q8NI77); assay: KIF18A enzyme assay (microtubule-stimulated ATPase activity, ADP-Glo); conditions: read-out: inhibitory activity against KIF18A IC50, 30 nM KIF18A, ATP 75 μM
HT-29 cells = assay: In vitro anti-proliferative activity against HT-29 cells (intracellular ATP content, 72 h); conditions: read-out: anti-proliferative activity against HT-29 cells IC50, 72 h after dosing
Description: Biological Example 2. In Vitro Anti-Proliferative Activity of Compounds of the Present Invention Against HT-29 Cells
(§1) HT-29 cells were seeded on a 384-well plate at 3000 cells/well. After overnight adherence culture, DMSO or the compounds serially diluted in a 1:5 ratio from 5 μM were added. The viability was assessed 72 h after dosing by measuring the intracellular ATP content. The inhibition percentages of viable cells by the compounds were calculated by comparing with the DMSO group, and the IC so values were also calculated.

HCT116 cells = assay: In vitro anti-proliferative activity against HCT116 cells (intracellular ATP content, 72 h); conditions: read-out: anti-proliferative activity against HCT116 cells IC50, 72 h after dosing
Description: Biological Example 3. In Vitro Anti-Proliferative Activity of Compounds of the Present Invention Against HCT116 Cells
as §1, with “HCT116” for “HT-29”, “IC50” for “IC so”

**Q.** Which IC50 [1] does the source give for `CN1CCc2cc(NC(=O)c3ccc(S(=O)(=O)NCCO)cc3N3CCC4(CC3)CC4)nc(N3CCC(F)CC3)c21` here?
**A.** Its IC50 is under 100 nM.

**Q.** `CN1CCc2cc(NC(=O)c3ccc(NS(=O)(=O)CCO)cc3N3CCC4(CC3)CC4)cc(NC(C)(C)CO)c21` was tested. Which IC50 [1] did it give?
**A.** The IC50 was under 100 nM.

**Q.** For `C[C@H]1CN(c2cc(C(=O)Nc3ccc(S(=O)(=O)NCCO)cc3N3CCC4(CC3)CC4)cc3c2N(C)CC3)CCO1`, which IC50 [1] is on record?
**A.** The IC50 was under 100 nM.

**Q.** How did the IC50 [1] turn out when `O=C(Nc1cc2c(c(N3CCC(F)(F)CC3)c1)OCO2)c1ccc(NS(=O)(=O)CCO)cc1N1CCC2(CC1)CC2` was run?
**A.** Its IC50 is under 100 nM.

**Q.** What about the IC50 (HT-29 cells) of the same molecule?
**A.** Its IC50 is 95 nM.

**Q.** What about the IC50 (HCT116 cells) of the same molecule?
**A.** The IC50 was over 10000 nM.

**Q.** `Cn1cnc2c(N3CCC(F)(F)CC3)cc(NC(=O)c3ccc(NS(=O)(=O)CCO)cc3N3CCC4(CC3)CC4)cc21` was tested. Which IC50 [1] did it give?
**A.** Its IC50 is under 100 nM.

**Q.** With `O=C(Nc1cc(N2CCC(F)(F)CC2)n2nccc2c1)c1ccc(NS(=O)(=O)CCO)cc1N1CCC2(CC1)CC2` as the molecule, how does the IC50 [1] read?
**A.** Its IC50 is under 100 nM.

**Q.** How did the IC50 [1] turn out when `CN1CCc2cc(NC(=O)c3ccc(S(=O)(=O)NCCO)cc3N3CCC4(CC3)CC4)cc(N3CCC(F)CC3)c21` was run?
**A.** Its IC50 is under 100 nM.

**Q.** Which IC50 [1] does the source give for `C[C@@H]1CN(c2nc(NC(=O)c3ccc(S(=O)(=O)NCCO)cc3N3CCC4(CC3)CC4)cc3c2OCC3)CCO1` here?
**A.** The IC50 was under 100 nM.
